Sequences of proteins named here, by UniProt entry; tags and fusion partners are left off.
UniProt Q07820, whole entry: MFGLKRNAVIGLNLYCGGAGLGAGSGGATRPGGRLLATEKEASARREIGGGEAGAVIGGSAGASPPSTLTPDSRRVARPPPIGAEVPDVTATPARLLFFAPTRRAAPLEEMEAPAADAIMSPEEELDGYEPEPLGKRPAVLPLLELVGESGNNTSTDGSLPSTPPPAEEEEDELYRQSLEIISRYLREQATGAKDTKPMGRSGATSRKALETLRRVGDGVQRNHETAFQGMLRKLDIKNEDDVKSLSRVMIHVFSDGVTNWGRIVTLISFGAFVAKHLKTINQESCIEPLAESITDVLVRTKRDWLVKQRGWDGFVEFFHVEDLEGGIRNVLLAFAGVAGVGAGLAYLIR
UniProt P10415, whole entry: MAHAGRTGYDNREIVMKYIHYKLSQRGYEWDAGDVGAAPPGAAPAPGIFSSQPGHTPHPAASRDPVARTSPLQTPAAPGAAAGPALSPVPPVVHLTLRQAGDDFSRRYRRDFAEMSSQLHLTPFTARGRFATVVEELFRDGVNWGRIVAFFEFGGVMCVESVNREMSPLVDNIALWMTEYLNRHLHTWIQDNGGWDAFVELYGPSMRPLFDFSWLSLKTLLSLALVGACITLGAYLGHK

According to US12258321B1 (University of Jeddah, priority 2024, dated 2025):

Assays:
[1] = molecular target: T1, MCL-1 (Homo sapiens, UniProt Q07820); assay: MCL-1 inhibition by TR-FRET assay (cell-free); type: binding; conditions: read-out: IC50 against MCL-1
T1 construct: purchased BPS Bioscience
Procedure: (§1) The effectiveness of inhibiting the MCL-1 and BCL-2 proteins was evaluated using specific assay kits (BPS Bioscience, Sandiego, CA) and corresponding ligands for each protein. The test compounds were incubated with the proteins for 120 or 180 min, and the experiment was repeated three times using Sabutoclax as a positive control. The concentrations of the test compounds Comp-1 and Comp-6 and positive control ranged from 0.01, 0.1, 1.0, 10 μM. Measurements were taken of Tb-donor emission at 620 nm followed by dye-acceptor emission at 665 nm, and data analysis was performed using the TR-FRET ratio (665 nm emission/620 nm emission). The FRET value from the positive control was considered as full activity (100%) and the FRET value from the negative control was considered as zero percent activity. Then, % inhibitory activity of test compounds was calculated by the equation: % Activity=FRETS−FRETneg/FRETP−FRETneg×100%
(§2) Where FRETS, FRETneg, and FRETp are sample FRET, negative control FRET, and positive control FRET, respectively. The IC50 values of the test compounds were calculated by nonlinear regression analysis on GraphPad Prism 5 (GraphPad Inc., USA).

[2] = molecular target: T2, BCL-2 (Homo sapiens, UniProt P10415); assay: BCL-2 inhibition by TR-FRET assay (cell-free); type: binding; conditions: read-out: IC50 against BCL-2
T2 construct: purchased BPS Bioscience
Procedure: as §1, §2

Cc1cc2c(C(=O)NC[C@H](C)c3ccccc3)c(O)c(O)cc2c(O)c1-c1c(C)cc2c(C(=O)NC[C@H](C)c3ccccc3)c(O)c(O)cc2c1O [Sabutoclax, reference compound] was tested, and the IC50 [1] was 251 nM and the IC50 [2] was 278 nM.
